The text below walks through data of patent US6004965A, “Sulfonamides” (Hoffmann-La Roche Inc., priority 1994, dated 1999).

By UniProt entry, the sequences of proteins in these tests, tags left out. Residues count along the entry.
UniProt P26684, 21-426: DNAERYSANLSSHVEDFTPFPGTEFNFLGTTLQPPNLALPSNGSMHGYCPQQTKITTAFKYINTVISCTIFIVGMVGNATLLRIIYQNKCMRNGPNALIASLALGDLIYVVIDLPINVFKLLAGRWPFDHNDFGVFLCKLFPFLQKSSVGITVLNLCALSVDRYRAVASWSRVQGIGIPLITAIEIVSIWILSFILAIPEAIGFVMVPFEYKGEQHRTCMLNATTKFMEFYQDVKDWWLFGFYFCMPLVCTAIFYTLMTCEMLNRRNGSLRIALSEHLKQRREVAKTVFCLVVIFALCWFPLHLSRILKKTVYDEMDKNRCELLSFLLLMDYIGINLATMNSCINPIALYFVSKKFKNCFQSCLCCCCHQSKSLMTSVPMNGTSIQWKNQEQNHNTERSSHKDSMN

The target of the assay is T1, endothelin-induced contractions in isolated rat aorta rings (Rattus norvegicus, UniProt P26684).
T1 construct: cut out from the thorax aorta of adult Wistar-Kyoto rats; from tissue; host or cells: thoracic aorta rings of adult Wistar-Kyoto rats, endothelium removed
Kind of assay: Inhibition of endothelin-induced contractions in isolated rat aorta rings. The conditions noted are these: in the absence of test compounds; read-out: EC50 of endothelin in the absence of test compounds (half-maximum contraction). The assay is classed as cell-based, rat (Wistar-Kyoto). How it is done: Rings with a length of 5 mm were cut out from the thorax aorta of adult Wistar-Kyoto rats. The endothelium was removed by lightly rubbing the internal surface. Each ring was immersed at 37° C. in 10 ml of Krebs-Henseleit solution in an isolated bath while gassing with 95% O2 and 5% CO2. The isometric stretching of the rings was measured. The rings were stretched to a pre-tension of 3 g.
The corresponding pA2 value, which is a measure of the activity of the test compound, was calculated using a computer programme according to the following equation from the "dose ratio" DR for each individual dosage-activity curve.
pA2 =log(DR-1)-log(antagonist-concentration)

endothelin [reference compound]: the EC50 stood at 0.3 nM.

By EC50 is commonly meant the concentration that produces a half-maximal response.
